As a reminder, the Km is the substrate concentration at which the rate is half of its maximum.

By UniProt entry, the sequences of proteins in these tests, tags left out.
UniProt P30419, whole entry, looked up, tested part not stated: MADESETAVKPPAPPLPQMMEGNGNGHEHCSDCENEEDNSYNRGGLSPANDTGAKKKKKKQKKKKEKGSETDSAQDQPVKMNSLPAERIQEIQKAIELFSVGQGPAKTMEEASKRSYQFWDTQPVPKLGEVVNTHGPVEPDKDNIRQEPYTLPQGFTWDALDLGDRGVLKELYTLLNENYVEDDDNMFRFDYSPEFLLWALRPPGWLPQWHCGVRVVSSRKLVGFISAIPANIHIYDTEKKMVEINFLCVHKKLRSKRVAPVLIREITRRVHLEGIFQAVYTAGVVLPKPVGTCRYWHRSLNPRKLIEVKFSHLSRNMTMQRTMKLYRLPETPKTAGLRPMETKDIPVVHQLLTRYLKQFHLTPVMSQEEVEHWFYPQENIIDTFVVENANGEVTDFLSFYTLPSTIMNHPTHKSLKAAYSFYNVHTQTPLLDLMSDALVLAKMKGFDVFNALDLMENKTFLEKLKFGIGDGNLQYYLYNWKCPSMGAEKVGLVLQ
UniProt O60551, whole entry, looked up, tested part not stated: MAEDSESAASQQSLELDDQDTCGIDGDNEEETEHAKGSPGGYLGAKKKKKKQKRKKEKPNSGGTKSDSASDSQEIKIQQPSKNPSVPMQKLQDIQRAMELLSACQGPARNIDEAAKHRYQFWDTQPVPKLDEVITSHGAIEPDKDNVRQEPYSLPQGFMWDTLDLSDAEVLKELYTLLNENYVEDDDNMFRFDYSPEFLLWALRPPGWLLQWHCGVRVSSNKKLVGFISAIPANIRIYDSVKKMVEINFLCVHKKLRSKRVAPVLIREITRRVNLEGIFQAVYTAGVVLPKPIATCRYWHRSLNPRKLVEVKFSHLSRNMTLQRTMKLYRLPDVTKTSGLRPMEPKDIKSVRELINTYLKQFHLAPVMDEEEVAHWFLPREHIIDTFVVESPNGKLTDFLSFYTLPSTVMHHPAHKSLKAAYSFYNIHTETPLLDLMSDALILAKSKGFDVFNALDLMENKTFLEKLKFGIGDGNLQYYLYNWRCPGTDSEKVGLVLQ

The test system of the data set is CC(C)C[C@H](NC(=O)CN)C(=O)N[C@@H](Cc1ccc(O)cc1)C(=O)N[C@@H](C)C(=O)N[C@@H](CO)C(=O)N[C@@H](CCCCN)C(=O)N[C@@H](CC(C)C)C(=O)N[C@@H](CO)C(N)=O. The note with it: Candida albicans.

As to “Peptide N-myristoyltransferase (Homo sapiens) (from UniProt P30419+O60551)”, the Km was 0.6 µM.

The values are drawn from ChEMBL document CHEMBL1129836, “Replacements for lysine in l-seryl-l-lysyl dipeptide amide inhibitors of candida albicans myristoyl-CoA:protein N-myristoyltransferase” (Bioorg Med Chem Lett, 1997).
